Results taken from publication PMC4281354, “The opioid receptor pharmacology of GSK1521498 compared to other ligands with differential effects on compulsive reward-related behaviours” (Psychopharmacology, 2014).

The chains behind the UniProt entries cited, without tags or fusion partners. Where a name states a change or a piece, a line headed by the entry shows the natural chain unless it says otherwise.
UniProt P35372, whole entry: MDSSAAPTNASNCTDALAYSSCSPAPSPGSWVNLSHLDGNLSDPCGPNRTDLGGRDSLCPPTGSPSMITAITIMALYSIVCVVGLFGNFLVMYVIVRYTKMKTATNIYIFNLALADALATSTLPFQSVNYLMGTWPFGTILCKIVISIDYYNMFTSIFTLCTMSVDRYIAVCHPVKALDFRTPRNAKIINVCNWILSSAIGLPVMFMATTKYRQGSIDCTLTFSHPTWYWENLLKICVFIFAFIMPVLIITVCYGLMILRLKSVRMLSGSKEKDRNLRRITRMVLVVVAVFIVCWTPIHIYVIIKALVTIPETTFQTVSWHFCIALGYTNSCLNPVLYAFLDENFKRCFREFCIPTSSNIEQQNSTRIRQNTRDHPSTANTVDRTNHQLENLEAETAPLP
UniProt P41143, whole entry: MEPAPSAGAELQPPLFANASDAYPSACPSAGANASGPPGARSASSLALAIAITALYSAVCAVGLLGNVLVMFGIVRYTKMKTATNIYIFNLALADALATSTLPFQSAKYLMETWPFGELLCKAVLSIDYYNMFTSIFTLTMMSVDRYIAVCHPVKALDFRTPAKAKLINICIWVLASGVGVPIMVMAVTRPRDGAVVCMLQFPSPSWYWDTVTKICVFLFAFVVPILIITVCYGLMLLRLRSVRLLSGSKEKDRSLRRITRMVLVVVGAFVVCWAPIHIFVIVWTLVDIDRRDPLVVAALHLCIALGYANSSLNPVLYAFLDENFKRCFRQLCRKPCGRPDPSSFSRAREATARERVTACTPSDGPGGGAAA
UniProt P41145: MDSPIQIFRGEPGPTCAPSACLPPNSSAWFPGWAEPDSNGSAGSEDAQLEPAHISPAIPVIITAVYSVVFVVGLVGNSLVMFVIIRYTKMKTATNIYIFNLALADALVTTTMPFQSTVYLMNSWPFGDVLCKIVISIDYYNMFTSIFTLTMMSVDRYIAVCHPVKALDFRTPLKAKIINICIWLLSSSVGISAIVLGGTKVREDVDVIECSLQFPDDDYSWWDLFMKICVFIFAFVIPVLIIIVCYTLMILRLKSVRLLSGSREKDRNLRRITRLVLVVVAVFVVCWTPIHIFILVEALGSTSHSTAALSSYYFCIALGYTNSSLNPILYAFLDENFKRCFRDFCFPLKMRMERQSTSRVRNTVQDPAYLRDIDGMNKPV

Tests used:
MOPr [1] = biological target: T1, MOPr (Homo sapiens, UniProt P35372); test: Antagonism of Met-Enk-stimulated [35S]GTPγS binding, CHO membranes overexpressing MOPr (SPA, antagonist mode); type: biochemical
human DOPr = human DOPr (Homo sapiens, UniProt P41143); test: Antagonism of Met-Enk-stimulated [35S]GTPγS binding, CHO membranes overexpressing DOPr (SPA, antagonist mode); type: biochemical; settings: vs Met-Enk, CHO cells overexpressing DOPr; mean ± SEM of three experiments
human KOPr = human KOPr (Homo sapiens, UniProt P41145); test: Antagonism of dynorphin-stimulated [35S]GTPγS binding, CHO membranes overexpressing KOPr (SPA, antagonist mode); type: biochemical
MOPr [2] = biological target: T1, MOPr; test: [3H]naloxone competition displacement binding, MOPr-HEK293 membranes
MOPr [3] = biological target: T1, MOPr; test: [3H]naloxone dissociation kinetics from MOPr, MOPr-HEK293 membranes; type: binding
MOPr [4] = biological target: T1, MOPr; test: Basal [35S]GTPγS binding, CHO membranes overexpressing MOPr (agonist mode); type: biochemical
MOPr [5] = biological target: T1, MOPr; test: Basal [35S]GTPγS binding, membranes from CHO cells expressing a low level of MOPr; type: biochemical

Oc1ccc2c3c1O[C@H]1[C@H](O)CC[C@@]4(O)[C@@H](C2)N(CC2CC2)CC[C@]314 [6β-Naltrexol, 6-β-naltrexol, reference compound]
Antagonist potency (fpKi) MOPr (MOPr [1]): 8.72 ± 0.11
blockade of MOPr activation by exogenous agonist (MOPr [1]): about 70%
completeness of inhibition of the agonist response at MOPr (MOPr [1]): did not produce complete inhibition
Antagonist potency (fpKi) DOPr (human DOPr): 7.71 ± 0.10
Antagonist potency (fpKi) KOPr (human KOPr): 8.52 ± 0.05
Affinity of binding (pKi) to MOPr (MOPr [2]): 9.12 ± 0.09 (n = 6)
maximum displacement of specific 3H-naloxone binding (MOPr [2]): 100%
rate of 3H-naloxone dissociation in the presence of drug (MOPr [3]): unchanged
enhancement of basal [35S]GTPγS binding (MOPr [4]): 30%
effect on basal level of GTPγS binding (MOPr [5]): did not modify
